According to patent US20060189679A1, “C10 cyclopropyl ester substituted taxane compositions” (priority 2005, published 2006):

Assays:
[1] = system: Panc-1 human pancreatic tumor xenografts; assay: Panc-1 human tumor xenograft studies in nude mice; conditions: Panc-e95
[2] = system: 786-0 human renal carcinoma xenografts; assay: 786-0 human tumor xenograft study (e89) in nude mice; conditions: for # Death NTR (Non-Treatment Related) / # Death TR (Treatment Related) / Day of Max. % BW Loss / MDS to 2.0 g ± SEM(n) / Max. % BW Loss: 786-0-e09 study; for Median survival Ratio: Column A (5% EC in Saline) / Column B
[3] = system: DLD-1 multi-drug resistant human colon carcinoma xenografts; assay: DLD-1 human tumor xenograft study (DLD e07) in nude mice; conditions: DLD1-e07 study

Q: Which “MDS to 1.2 g ± SEM (n)” value ([1]; 15 mg/kg PO Q7D × 3) does the source give for CC(=O)O[C@@]12CO[C@@H]1C[C@H](O)[C@@]1(C)C(=O)[C@H](OC(=O)C3CC3)C3=C(C)[C@@H](OC(=O)[C@H](O)[C@@H](NC(=O)OCC(C)C)c4ccco4)C[C@@](O)([C@@H](OC(=O)c4ccccc4)C12)C3(C)C (stereo partly drawn) [Compound 3102] here?
A: 29.0 ± 2.2 days

Q: And the “Max. % BW Loss; Day” value ([1]; 15 mg/kg PO Q7D × 3, Day 13)?
A: −1.3%;

Q: And the “# Death NTR” value ([1]; 30 mg/kg PO Q4D × 4)?
A: 0

Q: And the “# Death TR” value ([1]; 30 mg/kg PO Q4D × 4)?
A: 0

Q: And the “MDS to 1.2 g ± SEM (n)” value ([1]; 30 mg/kg PO Q4D × 4)?
A: 49.8 days

Q: What about the “# Death NTR” value ([1]; 30 mg/kg PO Q7D × 3) of the same molecule?
A: 0

Q: And the “# Death TR” value ([1]; 30 mg/kg PO Q7D × 3)?
A: 0

Q: What about the “MDS to 1.2 g ± SEM (n)” value ([1]; 30 mg/kg PO Q7D × 3) of the same molecule?
A: 46.8 ± 3.6 days

Q: What about the “# Death NTR” value ([1]; 40 mg/kg PO Q4D × 4) of the same molecule?
A: 0

Q: What about the “# Death TR” value ([1]; 40 mg/kg PO Q4D × 4) of the same molecule?
A: 0

Q: What about the “MDS to 1.2 g ± SEM (n)” value ([1]; 40 mg/kg PO Q4D × 4) of the same molecule?
A: 59.5 days

Q: What about the “Max. % BW Loss; Day” value ([1]; 40 mg/kg PO Q4D × 4, Day 16) of the same molecule?
A: −6.3%;

Q: What about the “# Death NTR” value ([1]; 50 mg/kg PO Q4D × 4) of the same molecule?
A: 0

Q: And the “# Death TR” value ([1]; 50 mg/kg PO Q4D × 4)?
A: 0

Q: And the “Max. % BW Loss; Day” value ([1]; 50 mg/kg PO Q4D × 4, Day 16)?
A: −2.5%;

Q: What about the “# Death NTR” value ([1]; 60 mg/kg PO Q4D × 4) of the same molecule?
A: 0

Q: What about the “# Death TR” value ([1]; 60 mg/kg PO Q4D × 4) of the same molecule?
A: 0

Q: And the “Max. % BW Loss; Day” value ([1]; 60 mg/kg PO Q4D × 4, Day 13)?
A: −8.2%;

Q: What about the “# Death NTR” value ([1]; 60 mg/kg PO Q7D × 3) of the same molecule?
A: 0

Q: And the “# Death TR” value ([1]; 60 mg/kg PO Q7D × 3)?
A: 0

Q: And the “Max. % BW Loss; Day” value ([1]; 60 mg/kg PO Q7D × 3, Day 13)?
A: −4.5%;

Q: And the “# Death NTR” value ([1]; 70 mg/kg PO Q4D × 4)?
A: 0

Q: And the “# Death TR” value ([1]; 70 mg/kg PO Q4D × 4)?
A: 0

Q: What about the “Max. % BW Loss; Day” value ([1]; 70 mg/kg PO Q4D × 4, Day 16) of the same molecule?
A: −11.7%;

Q: And the “# Death NTR” value ([1]; 80 mg/kg PO Q4D × 4)?
A: 0

Q: What about the “# Death TR” value ([1]; 80 mg/kg PO Q4D × 4) of the same molecule?
A: 0

Q: What about the “Max. % BW Loss; Day” value ([1]; 80 mg/kg PO Q4D × 4, Day 13) of the same molecule?
A: −9.7%;

Q: And the “# Death NTR” value ([1]; 90 mg/kg PO Q7D × 3)?
A: 0

Q: And the “# Death TR” value ([1]; 90 mg/kg PO Q7D × 3)?
A: 0

Q: And the “Max. % BW Loss; Day” value ([1]; 90 mg/kg PO Q7D × 3, Day 20)?
A: −14.8%;

Q: What about the “# Death NTR” value ([1]; 120 mg/kg PO Q7D × 3) of the same molecule?
A: 0

Q: And the “# Death TR” value ([1]; 120 mg/kg PO Q7D × 3)?
A: 0

Q: What about the “Max. % BW Loss; Day” value ([1]; 120 mg/kg PO Q7D × 3, Day 23) of the same molecule?
A: −12.0%;

Q: What about the “# Death NTR” value ([1]; 150 mg/kg PO Q7D × 3) of the same molecule?
A: 0

Q: And the “# Death TR” value ([1]; 150 mg/kg PO Q7D × 3)?
A: 2

Q: What about the “Max. % BW Loss; Day” value ([1]; 150 mg/kg PO Q7D × 3, Day 27) of the same molecule?
A: −25.8%;

Q: What about the “# Death NTR” value ([1]; 180 mg/kg PO Q7D × 3) of the same molecule?
A: 0

Q: And the “# Death TR” value ([1]; 180 mg/kg PO Q7D × 3)?
A: 0

Q: And the “Max. % BW Loss; Day” value ([1]; 180 mg/kg PO Q7D × 3, Day 27)?
A: −26.9%;

Q: And the “# Death NTR (Non-Treatment Related)” value ([2]; 30 mg/kg IV Q4D × 4)?
A: 0

Q: What about the “# Death TR (Treatment Related)” value ([2]; 30 mg/kg IV Q4D × 4) of the same molecule?
A: 0

Q: What about the “Day of Max. % BW Loss” value ([2]; 30 mg/kg IV Q4D × 4) of the same molecule?
A: Day 17

Q: What about the “MDS to 2.0 g ± SEM(n)” value ([2]; 30 mg/kg IV Q4D × 4) of the same molecule?
A: 50.8 ± 3.8

Q: What about the “Max. % BW Loss” value ([2]; 30 mg/kg IV Q4D × 4) of the same molecule?
A: −12.4%;

Q: And the “# Death NTR (Non-Treatment Related)” value ([2]; 50 mg/kg PO Q4D × 4)?
A: 0

Q: And the “# Death TR (Treatment Related)” value ([2]; 50 mg/kg PO Q4D × 4)?
A: 0

Q: And the “MDS to 2.0 g ± SEM(n)” value ([2]; 50 mg/kg PO Q4D × 4)?
A: 42.8 ± 2.2

Q: What about the “# Death NTR (Non-Treatment Related)” value ([2]; 70 mg/kg PO Q4D × 4) of the same molecule?
A: 0

Q: And the “# Death TR (Treatment Related)” value ([2]; 70 mg/kg PO Q4D × 4)?
A: 0

Q: What about the “Day of Max. % BW Loss” value ([2]; 70 mg/kg PO Q4D × 4) of the same molecule?
A: Day 10

Q: And the “MDS to 2.0 g ± SEM(n)” value ([2]; 70 mg/kg PO Q4D × 4)?
A: 40.5 ± 2.0

Q: What about the “Max. % BW Loss” value ([2]; 70 mg/kg PO Q4D × 4) of the same molecule?
A: −5.3%;

Q: What about the “# Death NTR (Non-Treatment Related)” value ([2]; 80 mg/kg PO Q4D × 4) of the same molecule?
A: 0

Q: What about the “# Death TR (Treatment Related)” value ([2]; 80 mg/kg PO Q4D × 4) of the same molecule?
A: 0

Q: What about the “Day of Max. % BW Loss” value ([2]; 80 mg/kg PO Q4D × 4) of the same molecule?
A: Day 17

Q: And the “MDS to 2.0 g ± SEM(n)” value ([2]; 80 mg/kg PO Q4D × 4)?
A: 47.7 ± 2.1

Q: And the “Max. % BW Loss” value ([2]; 80 mg/kg PO Q4D × 4)?
A: −7.6%;

Q: And the “Median survival Ratio” value ([2]; IV Q4D × 4 30 mg/kg)?
A: 0.6789

Q: And the “Median survival Ratio” value ([2]; PO Q4D × 4 50 mg/kg)?
A: 0.8235

Q: What about the “Median survival Ratio” value ([2]; PO Q4D × 4 70 mg/kg) of the same molecule?
A: 0.9562

Q: What about the “Median survival Ratio” value ([2]; PO Q4D × 4 80 mg/kg) of the same molecule?
A: 0.7729

Q: What about the “Median survival” value ([2]; IV Q4D × 4 30 mg/kg) of the same molecule?
A: 54.65

Q: And the “Hazard Ratio” value ([2]; IV Q4D × 4 30 mg/kg vs 5% EC in Saline PO Q4D × 4)?
A: 3.164

Q: What about the “Median survival” value ([2]; PO Q4D × 4 50 mg/kg) of the same molecule?
A: 45.05

Q: And the “Hazard Ratio” value ([2]; PO Q4D × 4 50 mg/kg vs 5% EC in Saline PO Q4D × 4)?
A: 2.176

Q: What about the “Median survival” value ([2]; PO Q4D × 4 70 mg/kg) of the same molecule?
A: 38.8

Q: And the “Hazard Ratio” value ([2]; PO Q4D × 4 70 mg/kg vs 5% EC in Saline PO Q4D × 4)?
A: 1.297

Q: What about the “Median survival” value ([2]; PO Q4D × 4 80 mg/kg) of the same molecule?
A: 48

Q: What about the “Hazard Ratio” value ([2]; PO Q4D × 4 80 mg/kg vs 5% EC in Saline PO Q4D × 4) of the same molecule?
A: 3.013

Q: And the “# Death NTR (Non-Treatment Related)” value ([3]; 30 mg/kg IV Q4D × 4)?
A: 0

Q: What about the “# Death TR (Treatment Related)” value ([3]; 30 mg/kg IV Q4D × 4) of the same molecule?
A: 0

Q: What about the “# Death NTR (Non-Treatment Related)” value ([3]; 50 mg/kg PO Q4D × 4) of the same molecule?
A: 0

Q: And the “# Death TR (Treatment Related)” value ([3]; 50 mg/kg PO Q4D × 4)?
A: 0

Q: What about the “# Death NTR (Non-Treatment Related)” value ([3]; 70 mg/kg PO Q4D × 4) of the same molecule?
A: 0

Q: And the “# Death TR (Treatment Related)” value ([3]; 70 mg/kg PO Q4D × 4)?
A: 0

Q: What about the “Max. % BW Loss” value ([3]; 70 mg/kg PO Q4D × 4) of the same molecule?
A: −13.5%;

Q: And the “# Death NTR (Non-Treatment Related)” value ([3]; 80 mg/kg PO Q4D × 4)?
A: 0

Q: And the “# Death TR (Treatment Related)” value ([3]; 80 mg/kg PO Q4D × 4)?
A: 0
